The source of these data is patent publication US20230091225A1, “Bifunctional chimeric heterocyclic compounds for targeted degradation of androgen receptors and use thereof” (HINOVA PHARMACEUTICALS INC., priority 2019, published 2023).

Chains of the proteins cited; added tags and fusions are not shown.
UniProt P10275, whole entry: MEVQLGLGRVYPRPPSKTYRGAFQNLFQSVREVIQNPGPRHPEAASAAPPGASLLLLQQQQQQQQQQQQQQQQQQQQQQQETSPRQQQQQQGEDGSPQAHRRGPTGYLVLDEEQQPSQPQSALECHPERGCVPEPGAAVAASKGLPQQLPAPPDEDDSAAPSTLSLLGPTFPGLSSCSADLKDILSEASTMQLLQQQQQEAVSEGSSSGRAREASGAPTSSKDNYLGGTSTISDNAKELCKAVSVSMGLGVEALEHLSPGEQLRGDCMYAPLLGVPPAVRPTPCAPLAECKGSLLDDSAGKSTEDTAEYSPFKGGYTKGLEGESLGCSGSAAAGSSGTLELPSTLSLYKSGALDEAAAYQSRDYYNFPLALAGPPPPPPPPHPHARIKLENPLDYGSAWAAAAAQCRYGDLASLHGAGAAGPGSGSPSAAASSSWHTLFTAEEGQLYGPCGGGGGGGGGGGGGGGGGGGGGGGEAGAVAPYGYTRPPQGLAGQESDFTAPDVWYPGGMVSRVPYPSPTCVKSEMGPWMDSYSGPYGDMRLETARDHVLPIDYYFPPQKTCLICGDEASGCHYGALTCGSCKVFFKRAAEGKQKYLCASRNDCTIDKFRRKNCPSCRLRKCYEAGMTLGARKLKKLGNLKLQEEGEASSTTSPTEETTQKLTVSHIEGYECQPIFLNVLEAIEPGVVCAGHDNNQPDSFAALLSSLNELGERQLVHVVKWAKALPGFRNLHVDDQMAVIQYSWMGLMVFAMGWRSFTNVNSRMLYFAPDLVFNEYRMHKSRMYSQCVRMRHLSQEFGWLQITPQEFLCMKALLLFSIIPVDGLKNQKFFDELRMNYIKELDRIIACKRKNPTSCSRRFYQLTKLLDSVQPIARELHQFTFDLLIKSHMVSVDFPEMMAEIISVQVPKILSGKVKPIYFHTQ

For the experiment, the target named is androgen receptor (AR) (Homo sapiens, UniProt P10275). The experiment is described as follows: Degradation of androgen receptor (AR) protein in VCaP cells by ELISA. It is filed as cell-based. As to conditions: 16 h, Table 3-1. On the technique in general: ELISA stands for enzyme-linked immunosorbent assay.

This is a selection: effects in other tests are not listed, and their absence says nothing. Some results are limits rather than exact numbers.

For the substance “N-((1r,4r)-4-(3-chloro-4-cyanophenoxy)cyclohexyl)-5-(7-(1-(2-(2,6-dioxopiperidin-3-yl)-1,3-dioxoisoindolin-5-yl)piperidine-4-yl)-2,7-diazaspiro[3.5]nonan-2-yl)pyrazine-2-carboxamide”, the DC50 (in general, the midpoint of the concentration-degradation curve) was less than 10 nM and the “Dmax (%)” value was “++++ (>80%)”.

On to “N-((1r,4r)-4-(3-chloro-4-cyanophenoxy)cyclohexyl)-6-(7-(1-(2-(2,6-dioxopiperidin-3-yl)-1,3-dioxoisoindolin-5-yl)piperidine-4-yl)-2,7-diazaspiro[3.5]nonan-2-yl)pyridazine-3-formamide”, for which the 50% degradation concentration (DC50) was less than 10 nM and the “Dmax (%)” value is listed as “++++ (>80%)”.
